Assays:
mice [1] = details: 10 nmole OFQ icv
mice [2] = assay: Reversal of morphine analgesia, 49° C. tail withdrawal latency; details: 25 nmol OFQ icv
mice [3] = details: mouse, in vivo
mice [4] = assay: Precipitation of withdrawal (jumping) in morphine dependent C57BL/6J mice; details: OFQ doses >5 nmole
mice [5] = assay: Open-field observation and locomotor activity (Digiscan) in mice; type: in vivo; details: larger doses, above 1 nmole/2 μL/mouse

CC(C)C[C@H](NC(=O)[C@H](CCCCN)NC(=O)[C@H](CCCN=C(N)N)NC(=O)[C@H](C)NC(=O)[C@H](CO)NC(=O)[C@H](CCCCN)NC(=O)[C@H](CCCN=C(N)N)NC(=O)[C@H](C)NC(=O)CNC(=O)[C@@H](NC(=O)[C@H](Cc1ccccc1)NC(=O)CNC(=O)CNC(=O)[C@@H](N)Cc1ccccc1)[C@@H](C)O)C(=O)N[C@@H](C)C(=O)N[C@@H](CC(N)=O)C(=O)N[C@@H](CCC(N)=O)C(=O)O [orphanin FQ]
hyperalgesia in TW test (mice [1]): no evidence of hyperalgesia | marked atonia and flaccid paralysis (mice [2]): up to 50 % of mice | side effects, intrathecal (mice [3]): hind limb paralysis and decrease in locomotor activity | toe- and tail-pinch reflexes (mice [3]): normal toe- and tail-pinch reflexes | atonia (mice [4]): produced atonia in some morphine-dependent mice | behavioral signs in open-field observation (mice [5]): profound influence on locomotor activity, as well as a decrease in muscle tone, a loss of righting reflex, and ataxia

Reference: patent publication US5821219A (priority 1995, dated 1998)
